Target: hKCNQ2/3 (Homo sapiens, UniProt O43525+O43526)
Assay: Fluorescence assay using a voltage sensitive dye (fluorimetry)
Conditions: CHO-K1 cells expressing KCNQ2/3, Table 3
Experimental: Fluorescence Assay using a Voltage Sensitive Dye
Human CHO-K1 cells expressing KCNQ2/3 channels are cultivated adherently at 37° C., 5% CO2 and 95% humidity in cell culture bottles (e.g. 80 cm^2 TC flasks, Nunc) with DMEM-high glucose (Sigma Aldrich, D7777) including 10% FCS (PAN Biotech, e.g. 3302-P270521) or alternatively MEM Alpha Medium (1×, liquid, Invitrogen, #22571), 10% fetal calf serum (FCS) (Invitrogen, #10270-106, heat-inactivated) and the necessary selection antibiotics.
Before being sown out for the measurements, the cells are washed with a 1×DPBS buffer without Ca^2+/Mg^2+ (e.g. Invitrogen, #14190-094) and detached from the bottom of the culture vessel by means of Accutase (PAA Laboratories, #L11-007) (incubation with Accutase for 15 min at 37° C.). The cell count then present is determined using a CASY™ cell counter (TCC model, Schärfe System) in order subsequently to apply, depending on the density optimization for the individual cell line, 20,000-30,000 cells/well/100 μl of the described nutrient medium to 96-well measuring plates of the Corning™ CellBIND™ type (Flat Clear Bottom Black Polystyrene Microplates, #3340). […]
The fluorescence measurements are carried out with a BMG Labtech FLUOstar™, BMG Labtech NOVOstar™ or BMG Labtech POLARstar™ instrument (525 nm excitation, 560 nm emission, Bottom Read mode). […]

Amino acid sequences for entries named in this document (tags omitted).
UniProt O43525, whole entry: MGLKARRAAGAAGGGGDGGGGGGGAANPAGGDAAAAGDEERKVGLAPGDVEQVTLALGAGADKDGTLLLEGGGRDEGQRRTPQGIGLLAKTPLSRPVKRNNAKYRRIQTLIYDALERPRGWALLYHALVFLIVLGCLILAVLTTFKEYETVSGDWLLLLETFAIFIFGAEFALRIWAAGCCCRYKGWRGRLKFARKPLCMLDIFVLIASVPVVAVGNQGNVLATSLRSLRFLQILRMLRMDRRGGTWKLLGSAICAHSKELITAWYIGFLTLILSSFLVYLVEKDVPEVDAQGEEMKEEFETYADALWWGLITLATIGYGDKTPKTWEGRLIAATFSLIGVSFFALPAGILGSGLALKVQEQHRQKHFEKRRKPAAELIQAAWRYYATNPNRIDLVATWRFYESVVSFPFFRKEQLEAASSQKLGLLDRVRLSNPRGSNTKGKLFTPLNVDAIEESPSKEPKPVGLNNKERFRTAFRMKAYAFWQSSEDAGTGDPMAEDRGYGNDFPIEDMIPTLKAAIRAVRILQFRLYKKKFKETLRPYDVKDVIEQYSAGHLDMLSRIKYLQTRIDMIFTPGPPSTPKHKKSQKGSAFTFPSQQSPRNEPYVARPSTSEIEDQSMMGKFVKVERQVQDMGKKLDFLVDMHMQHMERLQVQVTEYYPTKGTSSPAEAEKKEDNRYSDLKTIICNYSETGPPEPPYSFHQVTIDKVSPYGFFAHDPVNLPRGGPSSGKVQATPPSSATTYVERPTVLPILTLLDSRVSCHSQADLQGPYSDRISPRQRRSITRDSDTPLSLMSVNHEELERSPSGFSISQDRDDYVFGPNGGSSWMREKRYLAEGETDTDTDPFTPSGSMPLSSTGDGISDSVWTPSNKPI
UniProt O43526, whole entry: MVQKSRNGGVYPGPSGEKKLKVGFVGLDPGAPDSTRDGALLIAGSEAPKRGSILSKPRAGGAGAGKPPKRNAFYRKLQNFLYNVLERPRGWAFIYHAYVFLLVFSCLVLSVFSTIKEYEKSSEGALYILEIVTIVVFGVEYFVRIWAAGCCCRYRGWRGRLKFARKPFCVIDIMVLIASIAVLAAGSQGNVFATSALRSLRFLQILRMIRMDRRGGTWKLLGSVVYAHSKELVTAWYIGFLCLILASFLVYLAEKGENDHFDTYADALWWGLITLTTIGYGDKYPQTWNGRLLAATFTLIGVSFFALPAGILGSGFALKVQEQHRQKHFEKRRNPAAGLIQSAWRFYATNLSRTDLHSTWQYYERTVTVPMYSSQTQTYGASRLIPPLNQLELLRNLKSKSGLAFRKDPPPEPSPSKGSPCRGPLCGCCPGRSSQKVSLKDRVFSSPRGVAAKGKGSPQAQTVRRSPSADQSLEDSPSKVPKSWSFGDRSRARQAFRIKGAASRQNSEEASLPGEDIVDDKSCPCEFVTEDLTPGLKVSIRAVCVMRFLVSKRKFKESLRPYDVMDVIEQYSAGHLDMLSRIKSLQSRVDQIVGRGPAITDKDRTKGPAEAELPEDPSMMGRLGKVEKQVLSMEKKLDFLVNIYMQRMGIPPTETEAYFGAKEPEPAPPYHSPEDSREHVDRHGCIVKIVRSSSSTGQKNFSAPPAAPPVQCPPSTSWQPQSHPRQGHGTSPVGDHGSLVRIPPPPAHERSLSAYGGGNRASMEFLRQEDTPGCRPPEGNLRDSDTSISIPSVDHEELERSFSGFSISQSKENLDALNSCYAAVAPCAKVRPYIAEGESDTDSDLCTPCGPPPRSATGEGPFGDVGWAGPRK

Fluorimetry % Efficacy @ 10 μM (reti-gabine = 100%) (10 μM, relative to retigabine = 100%): 103% | EC50 (read-out: Fluorimetry EC50): 357 nM
Structure (SMILES): O=C(CCC(=O)N1CCc2sccc2C1c1cccc(F)c1)NCc1cccc(C(F)(F)F)c1 (centres unmarked)

From patent US20100105722A1, “Substituted 4,5,6,7-tetrahydrothienopyridines as KCNQ2/3 Modulators” (GRUENENTHAL GmbH, priority 2008, published 2010)
